# Experimental data from patent publication US5614370A, “Assay to identify human C5a antagonists and agonists” (Merck & Co., Inc., priority 1994, dated 1997).
# Target: T1, C5a receptor (Homo sapiens, UniProt P21730)
# T1 construct: followed by a 20 μL aliquot of neutrophil membrane; endogenous in cells
# T1 sequence (P21730 1-350): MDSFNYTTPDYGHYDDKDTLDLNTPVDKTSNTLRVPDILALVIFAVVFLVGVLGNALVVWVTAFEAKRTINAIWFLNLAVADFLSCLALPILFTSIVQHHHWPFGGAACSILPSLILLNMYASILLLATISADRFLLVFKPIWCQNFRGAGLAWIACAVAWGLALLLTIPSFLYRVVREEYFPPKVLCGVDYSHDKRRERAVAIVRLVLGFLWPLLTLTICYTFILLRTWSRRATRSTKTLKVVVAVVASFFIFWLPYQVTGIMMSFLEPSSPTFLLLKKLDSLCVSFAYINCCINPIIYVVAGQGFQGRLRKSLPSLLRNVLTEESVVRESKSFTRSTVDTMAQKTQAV
# Test: Competition binding against 125I-labeled intact C5a on human neutrophil (PMN) membranes
# Text: The affinity of these peptides is shown, for example, by radiolabeling intact C5a, and using the unlabeled peptide to compete the labeled C5a from C5a receptor binding sites on cellular membranes. Preparations of polymorphonuclear leukocytes (PMN's) are known to express the C5a receptor, (inhibition of the chemotactic response to C5a of this type of cell is one desirable utility for compounds identified by the instant assay). One method for preparing these membranes is described by Rollins, T. E. et al., [J. Biol. Chem. 264:520-526 (1988); see also U.S. Pat. No. 5,177,190, herein incorporated by reference as a method for isolating and purifying C5a receptor]. Briefly, this involves isolating PMN's in large quantity, disrupting these cells and obtaining the membrane fraction by centrifugation. […]
# Binding is initiated by an addition of 20 μL of PMN membrane (typically 0.5 μg of protein) to each tube. […] Non-specific background was determined by inclusion of a 100-fold excess of unlabeled C5a.
# The percent inhibition is calculated according to the following formula: [formula]
# Iodination of C5a was carded out with the use of chloramine T. (Rollins, T.E., and Springer, M.S. (1985) J. Biol. Chem. 260, 7157-7160). […] Concentrations of C5a were determined by amino acid analysis and by RIA (Amersham Corp.). […]
smiles,measurement,value
CN[C@@H](Cc1ccccc1)C(=O)N[C@@H](CCCCN)C(=O)N1CCC[C@H]1C(=O)N[C@H](CC1CCCCC1)C(=O)N[C@@H](Cc1c[nH]c2ccccc12)C(=O)N[C@H](CCCN=C(N)N)C(=O)O [C089],IC50,70 nM
